From patent US8916540B2, “Antibiotic compositions and related screening methods” (Academia Sinica, priority 2008, dated 2014) come the findings set out here.

The target of assay [1] is T1, PBP1 from Neisseria gonorrhoeae (Neisseria gonorrhoeae, UniProt O05131).
T1 construct: The recombinant proteins of the full-length genes from 16 bacteria; (His)6 (N); made in house; host or cells: E. coli BL21(DE3)
Description: SPR moenomycin binding to immobilized full-length PBP. The conditions noted are these: read-out: SPR_KD, steady-state affinity, average values.

In assay [2] the target is PBP1b from Streptococcus pneumoniae (Streptococcus pneumoniae, UniProt Q7CRA4). Described as above. The conditions noted are these: read-out: SPR_KD, steady-state affinity, average values.

As to Moenomycin A [Compound 1], the figures for the Kd in assay [1] and in assay [2] were 450 nM and 900 nM, respectively.
